Results from patent US11679084B2, “Method and compositions for rendering opioids safe” (dated 2023).

Key:
[1] = Oxidation by sodium perborate with TAED in water; settings: TAED and sodium perborate (1:4 molar ratio), room temperature
[2] = Destruction of oxycodone by excess sodium perborate in water; settings: room temperature aqueous solution of excess sodium perborate

SMILES	e-folding time [1]	e-folding time of destruction [2]
COc1ccc2c3c1O[C@H]1C(=O)CC[C@@]4(O)[C@@H](C2)N(C)CC[C@]314	about one	–
COc1ccc2c3c1O[C@H]1C(=O)CC[C@@]4(O)[C@@H](C2)N(C)CC[C@]314.Cl	–	about 20 minutes
